Patent US6087119A, “Method for determining the catalytic activity of factor IXa” (Roche Diagnostics GmbH, priority 1996, dated 2000)
Where two headings read alike, the source gives them in different places.

Protein sequences, listed by entry. Tags and fused reporters are not part of them. Residues count along the entry.
UniProt P00740, 131-226: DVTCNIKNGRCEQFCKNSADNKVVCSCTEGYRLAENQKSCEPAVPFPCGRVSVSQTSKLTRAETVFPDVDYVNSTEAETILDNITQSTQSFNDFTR
UniProt P00740, 227-461: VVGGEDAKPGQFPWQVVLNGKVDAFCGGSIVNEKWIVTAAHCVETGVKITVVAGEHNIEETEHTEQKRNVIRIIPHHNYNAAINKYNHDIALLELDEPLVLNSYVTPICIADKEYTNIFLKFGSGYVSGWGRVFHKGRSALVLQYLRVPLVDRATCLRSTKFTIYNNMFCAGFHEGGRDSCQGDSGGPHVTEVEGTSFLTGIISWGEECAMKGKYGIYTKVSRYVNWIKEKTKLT

Experiments:
[1] = molecular target: T1, rFIXa (human) (Homo sapiens, UniProt P00740); conditions: 25% additive; fluorogenic MeSO2-D-CHA-Gly-Arg-AMC 0.51 mmol/l; 0.08 μmol/l rFIXa; pH 7.4
Text: The stimulation of human rFIXa by ethanol and ethylene glycol was examined using the peptide substrates MeSO2 -D-HHT-Gly-Arg-pNA (Pefachrom tPA, Pentapharm Ltd., Basel, Switzerland), MOC-D-Nle-Gly-Arg-pNA (Chromozym X, Boehringer Mannheim GmbH, Mannheim, Germany, Cat.No. 789763), MeSO2 -D-CHG-Gly-Arg-pNA (Pentapharm Ltd., Basel, Switzerland), MeSO2 -D-CHA-Gly-Arg-pNA (Pentapharm Ltd., Basel, Switzerland) and MeSO2 -D-CHA-Gly-Arg-AMC (Pentapharm Ltd., Basel, Switzerland).
Test Mixture Fluorogenic (Concentration in the Test)
0.51 mmol/l MeSO2 -D-CHA-Gly-Arg-AMC
0.08 μmol/l rFIXa (human)

[2] = molecular target: T1, rFIXa (human); experiment: Influence of alcohols and organic solvents on the activity of rFIXa, chromogenic peptide substrates; assay type: biochemical; set-up: coding for the FIX protease domain from amino acid position 181 to 415; Met (ATG start codon) (N); made in house; conditions: 50% additive; MOC-D-Nle-Gly-Arg-pNA 0.82 mmol/l; 0.48 μmol/l rFIXa; pH 7.4
Method: The reaction was started by adding FIXa.
MeSO2 -D-HHT-Gly-Arg-pNA→MeSO2 -D-HHT-Gly-Arg+pNA measurement signal: pNA
0.48 μmol/l rFIXa (human)
0-50% (alcohol or organic solvent)
The ratio V/V0 was calculated to illustrate the stimulation of the catalytic activity of rFIXa.
V0, reaction rate without additives
V, reaction rate in the presence of additives
Test Mixture Chromogenic (Concentration in the Test)

Work on CCO [Ethanol] yielded a V/V0 [1] of 1.37 and a V/V0 [2] of 1.39.
